## Antibody variant affinities, Ab-95 light chain, assay 2

From the AlphaSeq antibody data of Engelhart et al. 2022 (doi:10.1038/s41597-022-01779-4), copy in the FLAb collection.

Target: peptide PDVDLGDISGINAS, taken from heptad repeat 2 (HR2) of SARS-CoV-2 spike.

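The library (AAYL52) carries one to three amino acid substitutions per variant, with no insertions or deletions. In AlphaSeq, yeast of one mating type display the scFv and yeast of the other type display the target. After mating in shaken culture at 30 °C for 16 h, diploids were selected and their barcode pairs sequenced. The ratio of observed to expected reads was calibrated, replicate by replicate, on BCL2-family standards whose Kd was known from biolayer interferometry. The assay was run in three technical replicates.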

Ab-95 is the parent antibody, in scFv form: VH, then the linker GGGGSGGGGSGGGGS, then VL. The heavy chain is unchanged in all variants.
VH: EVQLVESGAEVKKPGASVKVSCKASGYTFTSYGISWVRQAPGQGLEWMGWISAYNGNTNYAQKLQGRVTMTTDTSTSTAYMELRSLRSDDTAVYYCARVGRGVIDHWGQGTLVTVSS
VL: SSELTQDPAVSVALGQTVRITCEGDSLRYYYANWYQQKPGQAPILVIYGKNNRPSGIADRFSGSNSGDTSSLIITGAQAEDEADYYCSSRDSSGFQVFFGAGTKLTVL

Each variant is given by its three light chain CDRs, as the data file delimits them; those of the parent are EGDSLRYYYAN, GKNNRPS, SSRDSSGFQVF.
The read-out is the apparent dissociation constant on a log10 scale (nM): the lower, the stronger.
Averages over replicates are reported, and they cover detected replicates only.
"not detected" marks a missing value. The strain was present, yet no cells mated with the target were sequenced in any replicate, which points to weak or no binding.
Entries are sorted by rising average, undetected variants last.
For reference, the parent read 2.31 as the reference entry and 2.25 as a member of this library.

CDR-L1,CDR-L2,CDR-L3,"mean, log10 nM",detected
EGDSLRYYPAN,GKNNRPS,VSRDSSGFMVF,1.32,3 of 3
EGDSLRYHYAN,GKQNRPS,SSRDSSNFQVF,1.33,3 of 3
EGRSLRYYYAN,GKNNRAS,MSRDSSGFQVF,1.36,3 of 3
EGDSLRYYEAN,GKNNRPS,SSRDDSGFQVR,1.46,3 of 3
EFDSLRYGYAN,GKNNRPS,SSRDSNGFQVF,1.70,3 of 3
EGDSLQYYYAN,GKNNRPS,SSRGSSGFQHF,1.71,3 of 3
EHDSLRYYYAN,GKNNRPS,NCRDSSGFQVF,2.36,3 of 3
EGDSLRYYYAN,NKMIRPS,SSRDSSGFQVF,2.39,3 of 3
AEDSLRYEYAN,GKNNRPS,SSRDSSGFQVF,2.42,3 of 3
EGDSLRYYYAN,GKNNRPS,SCRDSSWFQVA,2.44,3 of 3
IGDSLRYYYAN,GKNNRPS,SSRDSFGFQVF,2.55,3 of 3
EGDGLRYYYAN,GKNNRPS,SSRDSSGFVVE,2.69,3 of 3
EGDSLRYYHAN,GKNNRPG,SSRMSSGFQVF,2.77,3 of 3
EGDSLRYYYAN,GKNGRPS,SSRDSSCTQVF,2.79,3 of 3
EGDSQRYAYAN,GKNNRPS,SSRPSSGFQVF,2.89,3 of 3
EGDSLEYYYAN,GKNNRPS,SSHDSIGFQVF,3.10,3 of 3
EGDSLRYYSAN,GKNNLPS,SSRKSSGFQVF,3.29,3 of 3
EGDRLRYYYAN,GKNNCPS,SSRDSSGNQVF,3.36,1 of 3
EGDVLRRYYAN,GKNNRPS,SSRDSSRFQVF,3.38,2 of 3
EGDSLRYYTAN,GKNNRPS,SSRDSSGFDQF,3.43,2 of 3
KGDSLRYYYAN,GKNNRPS,SHRDSSMFQVF,3.48,1 of 3
EGDSLRYYYAN,GKNFRPS,MSRCSSGFQVF,3.49,2 of 3
EGDSGRYYYAT,GKNNRPS,SSRTSSGFQVF,3.50,3 of 3
CGDVLRYYYAN,GKNNRMS,SSRDSSGFQVF,3.56,1 of 3
EGDSLRKYYAL,GKNNRPS,SARDSSGFQVF,3.56,1 of 3
EGDSLPYYYCN,GKNNRPS,SSRDSSGFWVF,3.59,1 of 3
EGDSLRYFYAN,GKNRRPS,SSRDSSGFQVY,3.62,3 of 3
EKDSLVYYYAN,GKFNRPS,SSRDSSGFQVF,3.64,3 of 3
EGNSLRYIYAE,GKNNRPS,SSRDSSGFQVF,3.69,2 of 3
EGDSLYYYYCN,GKNNRPC,SSRDSSGFQVF,3.92,2 of 3
EGDSLRYYYAI,GKNNRPW,SSRDSSGFQVY,4.17,2 of 3
EGDSLRYYYAQ,GRNNRPS,SSRDSSGFQLF,4.18,2 of 3
EGDSLRYYYAN,DKNNAPS,SSRDSSGFQVI,4.20,2 of 3
EWDSLRYYYAN,GMNNRNS,SSRDSSGFQVF,4.23,2 of 3
EGDSLRYYYAW,GKNNRPS,MSRDSSGFQRF,4.26,3 of 3
EGDSERYYYAN,IKNCRPS,SSRDSSGFQVF,4.46,1 of 3
EGDSARLYYAN,GKNNRPS,SSRDSSGFQVS,4.46,1 of 3
EGDHLRYYYWN,GKNNRPS,SSRDASGFQVF,4.48,2 of 3
ESDSLRYYYYN,GKNNRPS,SSRDSSWFQVF,4.74,3 of 3
EGDSLRYYYAQ,GKNNRPS,SSRDSSRFCVF,4.98,1 of 3
EGDSLRYYYAE,GKNNRFS,SKRDSSGFQVF,5.02,3 of 3
EGDYLMYYYAW,GKNNRPS,SSRDSSGFQVF,5.22,2 of 3
VGDSLRYYYAN,GKNNSPS,VSRDSSGFQVF,not detected,0 of 3
EGDSLRYYYAN,GKNNRPS,SSRDSSWFQWF,not detected,0 of 3
EGDSLRYYYAN,GKNNRQS,SSRDSSGFQMF,not detected,0 of 3
EGDSLRYYYCP,GKNNLPS,SSRDSSGFQVF,not detected,0 of 3
IGDSLRYYYAA,GKNNRTS,SSRDSSGFQVF,not detected,0 of 3

The last 5 entries again:

CDR-L1,CDR-L2,CDR-L3,"mean, log10 nM",detected
VGDSLRYYYAN,GKNNSPS,VSRDSSGFQVF,not detected,0 of 3
EGDSLRYYYAN,GKNNRPS,SSRDSSWFQWF,not detected,0 of 3
EGDSLRYYYAN,GKNNRQS,SSRDSSGFQMF,not detected,0 of 3
EGDSLRYYYCP,GKNNLPS,SSRDSSGFQVF,not detected,0 of 3
IGDSLRYYYAA,GKNNRTS,SSRDSSGFQVF,not detected,0 of 3

Three control strains display no target. For library AAYL52, 28% of the pairings with them gave a signal, with a median of 3.91 and one signal in twenty below 2.90, so weak values seen in few replicates may be background.